Data reported in patent US8426179B2, “Synthetic peptide and peptide conjugates and related tissue coupling methods via transglutaminase enzyme” (priority 2007, dated 2013).
Where “and” joins values, the source holds several entries; their conditions need not be identical. Identical values can stand only once.

Key:
[1] = Hydrolysis of the hydrocortisone prodrugs in solution (buffers); type: physicochemical; settings: 1.0 mM, Buffer 1 (PBS, pH 7.4), 37° C.
Procedure: This solution also contained 2 mM 6α-methyl prednisolone as an internal standard. The samples were then stored at −20° C. until analyzed with RP-HPLC and eluted with a linear gradient of 24-55% acetonitrile in water with 0.1% TFA. The amount of hydrocortisone hydrolyzed from the prodrug was determined by comparing its peak area to that of 6α-methyl prednisolone. […] Thirty microliter samples were collected at 10, 20, 30, and 60 minutes and analyzed as previously described.

[2] = Release of hydrocortisone from coupled prodrugs on the articular surface of cartilage; settings: any of the fluids utilized

In the case of hydrocortisone-GFKG-PEG [TRIP-PC], the T50% [1] is reported as 50.2 min and 51.1 min and the “hydrocortisone hydrolysis from coupled prodrug, TRIP-C compared with TRIP-PC” value [2] is reported as “no difference in hydrocortisone hydrolysis”.
